{
  "source": "patent US20240390467A1",
  "about": "“PROHEMOSTATIC PROTEINS FOR THE TREATMENT OF BLEEDING” (Academisch Ziekenhuis Leiden, priority 2014, published 2024)",
  "key": {"[1]": {"system": "thrombin generation in FX-depleted plasma", "test": "Tissue factor (TF)-initiated thrombin generation in FX-depleted plasma", "type": "biochemical, human", "protocol": "(§1) Thrombin generation assays: Thrombin generation was adapted from protocols earlier described (Hemker et al., 2003). Briefly, thrombin generation curves were obtained by supplementing FX-depleted plasma with Tissue Factor (TF, 2 or 20 pM final), Corn Trypsin Inhibitor (70 μg/ml), PCPS (20 μM) and 1 Unit (prothrombin time-specific clotting activity) of r-hFX (7 μg/ml) or chimeric FX-C (16 μg/ml). Thrombin formation was initiated by adding Substrate buffer (Fluca) to the plasma. FXa thrombin generation curves were obtained by supplementing FX-depleted plasma with Corn Trypsin Inhibitor (70 μg/ml), assay buffer and PCPS (20 μM). Thrombin formation was initiated by addition of FXa premixed with Rivaroxaban or Apixaban, assay buffer without calcium and supplemented with Fluca. The final reaction volume was 120 μl, of which 64 μl was FX-depleted plasma. Thrombin formation was determined every 20 seconds for 30 minutes and corrected for the calibrator, using the software of Thrombinoscope. The lag time, mean endogenous thrombin potential (the area under the thrombin generation curve), time to peak and peak thrombin generation, was calculated from at least three individual experiments."}, "[2]": {"system": "clotting of plasma, normal human plasma as reference", "test": "Prothrombin time-based clotting assay", "type": "biochemical", "protocol": "FIGS. 13A and 13B: Tissue factor (TF)-initiated TG profile for r-hFX and c-FX-C. FIG. 13A: Plasma TG at low TF (2 pM) in the absence and presence of 2 μM DOAC Apixaban (Apixa) by 1 unit r-hFX, r-hFX plus Apixaban, c-FXa-C or c-FXa-C plus Apixaban. One unit of r-hFX (7 μg/ml) or c-FXa-C (16 μg/ml) was defined by a prothrombin time-based clotting assay using normal human plasma as reference. Curves represent the average of at least three independent experiments. FIG. 13B: Plasma TG at high TF (20 pM).\nas §1, with “FXa thrombin generation curves were obtained by supplementing FX-depleted plasma with Corn Trypsin Inhibitor (70 μg/ml), assay buffer and PCPS (20 μM). Thrombin formation was initiated by addition of FXa premixed with Rivaroxaban or Apixaban, assay buffer without calcium and supplemented with Fluca. The final reaction volume was 120 μl, of which 64 μl was FX-depleted plasma.” left out"}, "[3]": {"conditions": "Edoxaban control (none), low TF 2 pM"}, "[4]": {"conditions": "High TF (20 pM), + Apixaban (2 μM)"}, "[5]": {"conditions": "Low TF (2 pM), + Apixaban (2 μM)"}},
  "data": [
    {"substance": "r-hFX: recombinant normal human FX expressed in HEK293 cells", "values": [
      {"measurement": "ETP remaining", "setting": "[1]; Edoxaban 50 nM, low TF 2 pM", "value": 99.3, "unit": "%"},
      {"measurement": "Lagtime", "setting": "[1]; Edoxaban 50 nM, low TF 2 pM", "value": 247, "unit": "s"},
      {"measurement": "Peak height %", "setting": "[1]; Edoxaban 50 nM, low TF 2 pM", "value": 41.2, "unit": "%"},
      {"measurement": "Time to peak", "setting": "[1]; Edoxaban 50 nM, low TF 2 pM", "value": 618, "unit": "s"},
      {"measurement": "ETP remaining", "setting": "[1]; Edoxaban 100 nM, low TF 2 pM", "value": 87.1, "unit": "%"},
      {"measurement": "Lagtime", "setting": "[1]; Edoxaban 100 nM, low TF 2 pM", "value": 297, "unit": "s"},
      {"measurement": "Peak height %", "setting": "[1]; Edoxaban 100 nM, low TF 2 pM", "value": 30.8, "unit": "%"},
      {"measurement": "Time to peak", "setting": "[1]; Edoxaban 100 nM, low TF 2 pM", "value": 756, "unit": "s"},
      {"measurement": "ETP remaining", "setting": "[1]; Edoxaban 200 nM, low TF 2 pM", "value": "no ETP"},
      {"measurement": "Lagtime", "setting": "[1]; Edoxaban 200 nM, low TF 2 pM", "value": 397, "unit": "s"},
      {"measurement": "Peak height %", "setting": "[1]; Edoxaban 200 nM, low TF 2 pM", "value": 23.1, "unit": "%"},
      {"measurement": "Time to peak", "setting": "[1]; Edoxaban 200 nM, low TF 2 pM", "value": 1290, "unit": "s"},
      {"measurement": "ETP remaining", "setting": "[1]; Edoxaban 400 nM, low TF 2 pM", "value": "no ETP"},
      {"measurement": "Lagtime", "setting": "[1]; Edoxaban 400 nM, low TF 2 pM", "value": 538, "unit": "s"},
      {"measurement": "Peak height %", "setting": "[1]; Edoxaban 400 nM, low TF 2 pM", "value": 15.9, "unit": "%"},
      {"measurement": "Time to peak", "setting": "[1]; Edoxaban 400 nM, low TF 2 pM", "value": 1890, "unit": "s"},
      {"measurement": "ETP remaining", "setting": "[1]; Edoxaban 600 nM, low TF 2 pM", "value": "no ETP"},
      {"measurement": "Lagtime", "setting": "[1]; Edoxaban 600 nM, low TF 2 pM", "value": 679, "unit": "s"},
      {"measurement": "Peak height %", "setting": "[1]; Edoxaban 600 nM, low TF 2 pM", "value": 13.0, "unit": "%"},
      {"measurement": "Time to peak", "setting": "[1]; Edoxaban 600 nM, low TF 2 pM", "value": 1932, "unit": "s"},
      {"measurement": "ETP remaining", "setting": "[1]; Edoxaban 1000 nM, low TF 2 pM", "value": "no ETP"},
      {"measurement": "Lagtime", "setting": "[1]; Edoxaban 1000 nM, low TF 2 pM", "value": 874, "unit": "s"},
      {"measurement": "Peak height %", "setting": "[1]; Edoxaban 1000 nM, low TF 2 pM", "value": 10.1, "unit": "%"},
      {"measurement": "Time to peak", "setting": "[1]; Edoxaban 1000 nM, low TF 2 pM", "value": 2472, "unit": "s"},
      {"measurement": "ETP remaining", "setting": "[1]; Edoxaban 2000 nM, low TF 2 pM", "value": "no ETP"},
      {"measurement": "Lagtime", "setting": "[1]; Edoxaban 2000 nM, low TF 2 pM", "value": 1180, "unit": "s"},
      {"measurement": "Peak height %", "setting": "[1]; Edoxaban 2000 nM, low TF 2 pM", "value": 7.1, "unit": "%"},
      {"measurement": "Time to peak", "setting": "[1]; Edoxaban 2000 nM, low TF 2 pM", "value": 2562, "unit": "s"},
      {"measurement": "ETP remaining", "setting": "[1]; [3]", "value": "100.", "unit": "%"},
      {"measurement": "Lagtime", "setting": "[1]; [3]", "value": 115, "unit": "s"},
      {"measurement": "Peak height %", "setting": "[1]; [3]", "value": "100.", "unit": "%"},
      {"measurement": "Time to peak", "setting": "[1]; [3]", "value": 265, "unit": "s"},
      {"measurement": "ETP", "setting": "[1]; [4]", "value": "694 ± 67", "unit": "nM"},
      {"measurement": "Lagtime", "setting": "[1]; [4]", "value": "138 ± 12", "unit": "s"},
      {"measurement": "Peak thrombin", "setting": "[1]; [4]", "value": "32 ± 4", "unit": "nM"},
      {"measurement": "Time to peak", "setting": "[1]; [4]", "value": "804 ± 36", "unit": "s"},
      {"measurement": "ETP", "setting": "[1]; High TF (20 pM), no Apixaban", "value": "973 ± 18", "unit": "nM"},
      {"measurement": "Lagtime", "setting": "[1]; High TF (20 pM), no Apixaban", "value": "48 ± 1", "unit": "s"},
      {"measurement": "Peak thrombin", "setting": "[1]; High TF (20 pM), no Apixaban", "value": "338 ± 8", "unit": "nM"},
      {"measurement": "Time to peak", "setting": "[1]; High TF (20 pM), no Apixaban", "value": "114 ± 6", "unit": "s"},
      {"measurement": "ETP", "setting": "[1]; [5]", "value": "no ETP"},
      {"measurement": "Lagtime", "setting": "[1]; [5]", "value": "696 ± 162", "unit": "s"},
      {"measurement": "Peak thrombin", "setting": "[1]; [5]", "value": "8 ± 4", "unit": "nM"},
      {"measurement": "Time to peak", "setting": "[1]; [5]", "value": "no peak"},
      {"measurement": "ETP", "setting": "[1]; Low TF (2 pM), no Apixaban", "value": "567 ± 61", "unit": "nM"},
      {"measurement": "Lagtime", "setting": "[1]; Low TF (2 pM), no Apixaban", "value": "132 ± 5", "unit": "s"},
      {"measurement": "Peak thrombin", "setting": "[1]; Low TF (2 pM), no Apixaban", "value": "61 ± 4", "unit": "nM"},
      {"measurement": "Time to peak", "setting": "[1]; Low TF (2 pM), no Apixaban", "value": "324 ± 6", "unit": "s"},
      {"measurement": "concentration equal to 1 Unit (prothrombin time-specific clotting activity)", "setting": "[2]", "value": 7, "unit": "µg/mL"}
    ]}
  ]
}
